Results as given in paper PMC6531791 (Molecular Metabolism, 2019).

System: SN DA neurons / midbrain tissue
Experiment: Real-time PCR of midbrain tissue or DAT-ribotag immunoprecipitated mRNA
Assay type: in vivo, mouse
Details: DAT-cre-ribotag animals; 4h time point; n = 4–7 per group

With `CN1CC=C(c2ccccc2)CC1` [MPTP, 1-methyl-4-phenyl-1,2,5,6 tetrahydropyridine] the “expression of mitochondrial fission genes (Fis-1, Mff, Drp-1)” value was “increased expression of Drp-1” and the “expression of mitochondrial fusion genes (Mitofusin 1 and 2, Opa-1)” value was “markedly decrease in both mitofusins expression”.
